## Measured affinities in a library of Ab-14 heavy chain variants

Target peptide (SARS-CoV-2 spike, HR2 region): PDVDLGDISGINAS

Parent: Ab-14, a human scFv built as VH, a 15-residue (Gly4Ser)3 linker, VL. Only the CDRs of the heavy chain vary.
VH: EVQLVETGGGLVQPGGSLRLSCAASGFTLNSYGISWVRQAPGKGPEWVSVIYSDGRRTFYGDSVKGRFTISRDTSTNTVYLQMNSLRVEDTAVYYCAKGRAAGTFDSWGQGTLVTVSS
VL: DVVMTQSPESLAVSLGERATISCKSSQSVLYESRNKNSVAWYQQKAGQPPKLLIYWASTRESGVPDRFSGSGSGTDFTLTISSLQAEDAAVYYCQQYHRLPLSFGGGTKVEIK

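The parent was found by panning a naive human phage display library on the peptide. The library (AAYL49) carries one to three amino acid substitutions per variant, with no insertions or deletions. AlphaSeq pools MATa yeast showing the antibodies with MATalpha yeast showing the peptide. The frequency of each diploid, read from paired DNA barcodes, reflects how well the two displayed proteins bind. Each replicate has its own calibration line, from reference interactions of the BCL2 family. The assay was run in three technical replicates.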

The parent's heavy chain CDRs are GFTLNSYGIS, VIYSDGRRTFYGDSVK, GRAAGTFDS; each variant's own CDRs replace them letter for letter.
Numbers give log10(Kd / nM), so 0 is 1 nM and 3 is 1 µM. Smaller is tighter.
A mean of the replicates is given; it leaves out those without a signal.
Where no diploid with the target was found in that replicate, the entry reads "ND": below detection, most likely a poor binder, though not proof of it.
Parent in this assay: reference entry 0.65, copy in this library 4.11 (one replicate of three).
As a blank, each scFv also met three strains without target: over library AAYL49, 15% of these pairings were detected, typically at 4.06 and seldom below 2.83. Also given: how often the same scFv was detected with the empty control strains.

With YFTLNSYGIS | VIYSDGRRTFYEDSVK | GRAAGTFDS the result was 3.22, 2.30, 2.97 (mean 2.83; controls 0 of 9).
With GFTLNSYGIS | VIYSDERRTFYGDSVK | GRAAGTFDS the result was ND, ND, ND (controls 0 of 9).
With GFTLNSYGRS | VRYSDGMRTFYGDSVK | GRAAGTFDS the result was 3.89, ND, 3.77 (mean 3.83; controls 2 of 9).
With GFTPNSYGIS | VIYSDDSRTFYGDSVK | GRAAGTFDS the result was ND, 4.85, ND (controls 0 of 9).
With GFTLNSYGIS | VIYSDGRRGFYGDSVK | GRAARTYDS the result was ND, ND, ND (controls 0 of 9).
With GFTHNSYGIS | VIYSDGRRTFYGDSDK | GRAAGTFDK the result was ND, 3.33, ND (controls 1 of 9).
With GFTLNSYGIS | VIYSDGRRTSYCDSVK | GRAAGTFDW the result was 1.13, 1.09, 1.22 (mean 1.15; controls 0 of 9).
With QFTLNSYGIS | VIRSDGRRTFYGDNVK | GRAAGTFDS the result was ND, 4.66, ND (controls 1 of 9).
With VFTFNSYGIS | VIYSDGLRTFYGDSVK | GRAAGTFDS the result was ND, ND, ND (controls 0 of 9).
With GFTLNSYGIS | VRYSDGRRTMYGDYVK | GRAAGTFDS the result was ND, ND, ND (controls 0 of 9).
With GFTLNSYGIE | VIYSDGRWTFYGDSVW | GRAAGTFDS the result was ND, ND, ND (controls 3 of 9).
With GFTLSSYGIS | VIYSDGRRTFYGDSVK | GRAAGPFDS the result was ND, ND, ND (controls 1 of 9).
With GFTLNSYGIS | VIYGDGRRTFYGDSVK | GRAAGTFDS the result was 1.99, ND, 3.03 (mean 2.51; controls 0 of 9).
With GFTRNSYGIS | VIYSDGRRTFYGDSVK | GRPAGTWDS the result was 4.32, ND, ND (controls 5 of 9).
With GFTLNSYGIS | VIYSDGRSTFEGDSVK | QRAAGTFDS the result was ND, ND, ND (controls 1 of 9).
With GFTLNSYGIS | VIYSDGHHTFYGDSVK | GRAAGTFDM the result was ND, ND, ND (controls 0 of 9).
With GFTLSSYGIS | VIYSDGRRTFYGDSVN | GRAAGTADS the result was 1.60, 1.30, 1.65 (mean 1.52; controls 1 of 9).
With GFTLNSYGIS | VTYSDGRRTFYGDSVK | GWEAGTFDS the result was ND, 3.19, ND (controls 5 of 9).
With GFTLNSYFIS | VCYSDGRRTFYGDSVK | GRKAGTFDS the result was ND, ND, ND (controls 0 of 9).
With GFTLNSYGIS | VIYSKGRRTFYGDSAK | GRAAGTFDS the result was ND, ND, ND (controls 0 of 9).
With GFTLNSYGIS | VMYSDGKRTFYGDSRK | GRAAGTFDS the result was ND, 4.05, ND (controls 1 of 9).
With GFTLNSYGSS | VIYSDGRRTFYGDSVK | GRAAGTDDD the result was ND, ND, ND (controls 1 of 9).
With GFTLNSYGIS | VIDSDGRRTFYGDSVK | GRAAGTFDS the result was ND, ND, ND (controls 2 of 9).
With GFTENSNGIS | VIYSDGRRTFYGDSVK | GRAAGTFDS the result was ND, 4.70, 4.06 (mean 4.38; controls 3 of 9).
With GFTLNSYGIS | VIYSAGRQTFYGDSVR | GRAAGTFDS the result was ND, 4.67, ND (controls 3 of 9).
With GFTLNSYGIS | IIYSDGRRVFYGDSVK | MRAAGTFDS the result was 4.74, 3.56, ND (mean 4.15; controls 8 of 9).
With PFTLNSYGIS | VIYSDGRRTFYGDSEK | GRAAGTFDS the result was ND, ND, ND (controls 0 of 9).
With GFTLNSYGIE | VIYSDGRRTFYGDSVG | GRFAGTFDS the result was ND, ND, 5.24 (controls 1 of 9).
With GFTLLSYFIS | VIYSDGRRTFYGDSVK | QRAAGTFDS the result was ND, ND, ND (controls 2 of 9).
With GFTLNSYGIS | VIYSDGQRTFYGDSVK | GTAANTFDS the result was ND, ND, 4.87 (controls 0 of 9).
With GFTLASYGIS | VIYSDGRRTFYGDIVH | GRAAGTFDS the result was ND, 4.38, 5.12 (mean 4.75; controls 2 of 9).
With GFTLNSYGIF | VIYSDGRCKFYGDSVK | GRAAGTFDS the result was ND, ND, ND (controls 0 of 9).
With GFTLNSYGIS | VYYSDGRRTFEGDSVK | GIAAGTFDS the result was 5.26, 4.35, 5.04 (mean 4.88; controls 6 of 9).
With GFTLNSYGIS | VIYSDGRRTFYGDSVK | GRAAGTDDS the result was ND, ND, ND (controls 1 of 9).
With GFTLNSYGIS | VHYSDGRRTFYGDSVK | GRAAGTFDS the result was ND, 3.90, 5.59 (mean 4.74; controls 2 of 9).
With GFCLNSYGIS | VIYSIGRRTFYGDSVK | GRAAGTFDA the result was ND, 4.56, ND (controls 1 of 9).
With GFTLTSYGIS | VIYSSGRRTFYTDSVK | GRAAGTFDS the result was 2.94, ND, ND (controls 1 of 9).
With GFTLNSYGIS | VHYSPGRRTFYGMSVK | GRAAGTFDS the result was ND, ND, ND (controls 1 of 9).
With GFTLNSYGIS | MMYSDGKRTFYGDSVK | GRAAGTFDS the result was ND, 3.47, ND (controls 1 of 9).
With GFTLNSNGIS | VIYSDGRRTFYMDSVK | GRVAGTFDS the result was 2.03, 2.04, 2.12 (mean 2.06; controls 3 of 9).
With GFTLNSYGIS | VIYVDGRRTRYGDSVK | GRAAGTKDS the result was ND, ND, ND (controls 0 of 9).
With GFTLNSYTIS | VIYSDGRRTFDGDSVK | GRAATTFDS the result was ND, ND, ND (controls 0 of 9).
With GFTLNSYGIS | VIYSDGRRTFYFISVK | GREAGTFDS the result was ND, ND, ND (controls 3 of 9).
With GFTFNSYGIS | VIYSDGRRTFYGDSVK | GVAAGTFDS the result was ND, ND, 1.60 (controls 0 of 9).
With GFTFNSYGIS | VIYSDGRRTFYGYSVK | GRARGTFDS the result was ND, ND, ND (controls 2 of 9).
With GFTLNSYGIS | VIYSDGRRTFYGDSVK | GRAAGTEDS the result was 3.73, 4.18, 4.56 (mean 4.16; controls 2 of 9).
With GFTMNSYGIS | VIYSDGRGRFYGDSVK | GRAAGTFDS the result was ND, ND, ND (controls 0 of 9).
With GFTLNSYGIS | VILSDGKRTFYGDSVK | HRAAGTFDS the result was ND, ND, ND (controls 0 of 9).
With GFTLNSYGIS | VIYSIGRRTFKGDSVK | GRWAGTFDS the result was ND, ND, ND (controls 0 of 9).
With MITINSYGIS | VIYSDGRRTFYGDSVK | GRAAGTFDS the result was ND, 3.13, ND (controls 1 of 9).
With GFTLNSYGIS | VIYYCGARTFYGDSVK | GRAAGTFDS the result was ND, ND, ND (controls 0 of 9).

Excerpt, the final 7 entries:

| CDR-H1 | CDR-H2 | CDR-H3 | replicates, log10 nM | mean log10 Kd (nM) | signal with controls |
|---|---|---|---|---|---|
| GFTFNSYGIS | VIYSDGRRTFYGYSVK | GRARGTFDS | ND, ND, ND | ND | 2/9 |
| GFTLNSYGIS | VIYSDGRRTFYGDSVK | GRAAGTEDS | 3.73, 4.18, 4.56 | 4.16 | 2/9 |
| GFTMNSYGIS | VIYSDGRGRFYGDSVK | GRAAGTFDS | ND, ND, ND | ND | 0/9 |
| GFTLNSYGIS | VILSDGKRTFYGDSVK | HRAAGTFDS | ND, ND, ND | ND | 0/9 |
| GFTLNSYGIS | VIYSIGRRTFKGDSVK | GRWAGTFDS | ND, ND, ND | ND | 0/9 |
| MITINSYGIS | VIYSDGRRTFYGDSVK | GRAAGTFDS | ND, 3.13, ND | 3.13 | 1/9 |
| GFTLNSYGIS | VIYYCGARTFYGDSVK | GRAAGTFDS | ND, ND, ND | ND | 0/9 |

Data: MIT Lincoln Laboratory AlphaSeq set, Engelhart et al. 2022, doi:10.1038/s41597-022-01779-4, as distributed in FLAb.